Chains of the proteins cited; added tags and fusions are not shown. Lines headed by an entry give the natural chain unless they say otherwise; changes in a name come on top.
UniProt P07678: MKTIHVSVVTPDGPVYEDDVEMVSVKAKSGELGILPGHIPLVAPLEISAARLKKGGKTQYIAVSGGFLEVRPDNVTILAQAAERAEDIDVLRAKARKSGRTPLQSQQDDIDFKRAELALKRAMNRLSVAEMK

According to PMC5679667, “Imaging extracellular ATP with a genetically-encoded, ratiometric fluorescent sensor” (PLoS ONE, 2017):

Molecular target: T1, ecAT3.10 (extracellular ATeam3.10) (Bacillus sp. PS3, UniProt P07678)
T1 construct: gene atpC; ATeam3.10 (epsilon subunit between CFP and YFP) with N-terminal IgK leader and C-terminal PDGFR transmembrane anchor; on surface of Neuro2A cells
Assay: live-cell FRET/CFP ratio imaging, Hill fit
Assay type: cell-based
Settings: read-out: Kapp

Structure (SMILES): Nc1ncnc2c1ncn2[C@@H]1O[C@H](COP(=O)(O)OP(=O)(O)OP(=O)(O)O)[C@@H](O)[C@H]1O [ATP]
- Kd: 12 ± 5 µM
